Reference: publication PMC12688703, “NirA is a Cyanide‐Tolerant Nitrite Reductase Which Protects Pseudomonas aeruginosa From Self‐Poisoning” (Environmental Microbiology Reports, 2025)

The chains behind the UniProt entries cited, without tags or fusion partners.
UniProt Q9HWQ1, entry or part of it: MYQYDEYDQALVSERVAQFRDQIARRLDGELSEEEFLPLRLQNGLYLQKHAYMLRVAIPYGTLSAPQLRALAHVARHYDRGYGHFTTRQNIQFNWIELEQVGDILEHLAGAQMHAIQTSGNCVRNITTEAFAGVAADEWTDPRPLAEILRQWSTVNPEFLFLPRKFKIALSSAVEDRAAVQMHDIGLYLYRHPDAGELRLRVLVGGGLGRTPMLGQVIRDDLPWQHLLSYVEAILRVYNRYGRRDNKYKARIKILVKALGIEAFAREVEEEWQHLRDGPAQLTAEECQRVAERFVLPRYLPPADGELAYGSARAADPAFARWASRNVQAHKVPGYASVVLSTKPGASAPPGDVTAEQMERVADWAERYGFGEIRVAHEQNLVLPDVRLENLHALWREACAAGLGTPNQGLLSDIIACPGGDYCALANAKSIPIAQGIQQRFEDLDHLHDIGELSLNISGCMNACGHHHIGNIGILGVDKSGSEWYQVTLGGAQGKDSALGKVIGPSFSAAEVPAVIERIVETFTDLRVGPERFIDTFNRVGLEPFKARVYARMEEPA

Molecular target: T1, NirA (PA4130) (Pseudomonas aeruginosa, UniProt Q9HWQ1)
T1 construct: IMAC and SEC
Type: biochemical
Settings: anaerobic; methyl viologen as electron donor

## O=NO [potassium nitrite]
  methyl viologen oxidation at 605 nm: Potassium nitrite and hydrogen sulphite were used as electron acceptors for NirA and CysI
